Screens deposited in PubChem by ICCB-Longwood Screening Facility, Harvard Medical School.
A selection: hits, their analogues and other compounds. The true share with any hit is near 0.43%.
GIV-Gai inh: inhibitors of GIV GBA-motif binding to rat Galpha-i3; P08753; Galpha-i3/FITC-GIV peptide fluorescence polarization, 90 min; active compounds read low; scaled: aluminum fluoride 0%, vehicle 100%; percent of control (FP), % (concentration not given with the values); 210,000 compounds, 0.42% hits; AID 1224905;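 active means replicate mean at 85% of control or lower, very high polarization wells dropped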;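 further: wells of about 15 µL received 100 nL stock; the first replicate is given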
HCMV UL50-53 inh: inhibitors of HCMV UL50-UL53 interaction, biochemical, HTRF. normalized percent inhibition. inhibition, % (test concentration not listed). hit rate 0.15% among 190,000. AID 1918969, 2023; in the data active = inhibition above about 27%, passing the limit was not always enough
* = called active by the depositor; x = not tested or not shown.

Order of values: GIV-Gai inh | HCMV UL50-53 inh
CC(=O)OCc1cc(C2C(C#N)=C(N)OC(N)=C2C#N)c(C)cc1C
→ -1.1* | x
CCOC(=O)C1=C(C)OC(N)=C(C#N)C1c1ccccc1C (configuration not stated)
→ 108.4 | x
CC(C)c1ccc(S(=O)(=O)Nc2cc(C(=O)O)cnc2N2CCC(Cc3ccccc3)CC2)cc1
→ 104.5 | 5.0
Cc1ccc2c(c1)N(CCC(=O)O)C(=O)CO2
→ 105.6 | -5.6
CCOC(=O)c1c(C)n(C)c2ccc(O)cc12
→ 108.2 | -14.9
CCOC(=O)c1c2ccc(O)cc2n2ccccc12
→ 69.0* | -48.7
CCCC(=O)N(Cc1nc2nc(C)cc(=O)n2[nH]1)c1ccccc1OC
→ 99.4 | -23.9
O=C(O)CN1C(=O)/C(=C\c2ccc(O)cc2)SC1=S
→ 195.9 | -123.7
CN(C)c1ccc(/C=C2/SC(=S)N(CC(=O)O)C2=O)cc1
→ -60.8* | -19.5
Cc1csc2c(=O)sc(NC(=O)c3ccco3)nc12
→ 103.2 | 32.7

Marked active in GIV-Gai inh, of those listed so far:
canonical_smiles | GIV-Gai inh
CC(=O)OCc1cc(C2C(C#N)=C(N)OC(N)=C2C#N)c(C)cc1C | -1.1*
CCOC(=O)c1c2ccc(O)cc2n2ccccc12 | 69.0*
CN(C)c1ccc(/C=C2/SC(=S)N(CC(=O)O)C2=O)cc1 | -60.8*

Later entries
Order of values: GIV-Gai inh | HCMV UL50-53 inh
Cc1csc2c(=O)sc(NC(=O)c3cccs3)nc12
→ 102.6 | 57.7*
CC(C)c1ccc(C2Oc3ccccc3C3CC(c4ccc(Br)cc4)=NN32)cc1 (configuration not stated)
→ 97.9 | -1.7
CC(C)(C)c1ccc(C2Oc3ccccc3C3CC(c4ccc(Br)cc4)=NN32)cc1 (configuration not stated)
→ 101.6 | 42.5*
COC(=O)c1cc(COC(=O)CCc2nc3ccccc3s2)oc1C
→ x | -6.9
COc1ccc2c(NCC3=CC=CC3)cc(C)nc2c1
→ 119.3 | 3.7
CCN(CCC#N)c1ccc(/C=C(\C#N)C(=O)NC(C)C)c(C)c1
→ x | -76.7
CCN(CC)c1ccc(/C=C(/C#N)C(=O)NC(C)C)o1
→ -102.1* | -161.5
Cc1cc(C)c(S(=O)(=O)Nc2cnc(N3CCNCC3)c(C(=O)N3CCCCC3C)c2)c(C)c1 (configuration not stated)
→ 100.3 | x
O=C(c1cc2c(=O)[nH]c3ccccc3c2s1)N1CCCC1
→ 57.6* | x
O=C(c1cc2c(=O)[nH]c3ccccc3c2s1)N1CCN(c2ccc(F)cc2)CC1
→ 100.1 | -22.8
C=CC(=O)Nc1cccc(Oc2cc(Cl)nc3[nH]ccc23)c1
→ x | 33.8*
C=CC(=O)Nc1cccc(Oc2nc(Nc3ccc(N4CCN(C)CC4)cc3OC)ncc2Cl)c1
→ x | 48.7
Cc1cc(-c2csc(S(=O)(=O)N3CCN(c4cc(Cl)ccc4C)CC3)c2)on1
→ 104.1 | x
CC1(C)CC(=O)C2=C(C1)NC1=C(C(=O)CC(C)(C)C1)C2c1ccc(OCc2ccccc2Cl)cc1
→ 111.6 | x
CN1CCc2c(sc(NC(=O)CN3C(=O)c4ccccc4C3=O)c2-c2nc3ccccc3s2)C1
→ 124.1 | x
CC(C)N1CCc2c(sc(NC(=O)C3CC3)c2-c2nc3ccccc3s2)C1
→ -3.2* | x
CC(=O)N1CCc2c(sc(NC(=O)CSc3ccc(C)cc3)c2-c2nc3ccccc3s2)C1
→ 99.6 | x
CN1CCc2c(sc(NC(=O)C3CC3)c2-c2nc3ccccc3s2)C1
→ -3.2* | x
Cc1cc(C)c(S(=O)(=O)Nc2ccc3[nH]c(=O)oc3c2)c(C)c1
→ 101.7 | -15.7
Cc1cc(C(=O)CSc2nnc(Cc3ccccc3)o2)c(C)n1CC1CCCO1 (configuration not stated)
→ x | -35.8
O=C1NC(=Nc2ccc(F)cc2)S/C1=C/c1ccc(N2CCCC2)o1
→ x | -21.5
O=C1NC(=Nc2ccc(F)cc2)S/C1=C/c1ccc(N2CCCCCC2)o1
→ -78.3* | -28.1
COc1ccc(CNC(=O)C(OC(=O)c2ccco2)c2ccc(C)cc2)cc1 (configuration not stated)
→ 104.3 | -11.2
CC(Cn1cnc2c([nH]c3ccc(F)cc32)c1=O)c1ccccc1 (configuration not stated)
→ 102.5 | -21.9
Cc1ccc(C(=O)Nc2ccc(-n3cnnn3)cc2)cc1
→ 99.7 | -31.4
NC(=O)C[n+]1ccn2c(NC3CCCCC3)c(-c3ccccc3O)nc2c1
→ -74.8* | x
Cc1ccc(Nc2c(-c3ccccc3O)nc3cc(C)ccn23)cc1
→ 102.6 | -3.4
CCOC(=O)c1sc(N)c(C#N)c1COC(=O)CCCN1C(=O)c2ccccc2C1=O
→ x | -27.8
Cc1ccc(NC(=O)C2=C(N)C(C(=O)Nc3c(F)c(F)c(F)c(F)c3F)SC2=NCc2ccco2)c(C)c1 (configuration not stated)
→ x | -10.7
O=c1[nH]nc(-c2cccs2)o1
→ x | -30.1
O=C(Nc1ccc2nc3c(=O)[nH]c(=O)[nH]c3nc2c1)C(F)(F)F
→ -15.9* | x
Cc1ccc2nc3[nH]c(=O)[nH]c(=O)c3nc2c1
→ 102.6 | x
CCC1=NN(C(=O)c2cccc(C)c2)C(O)(c2ccc(Br)cc2)C1 (configuration not stated)
→ 102.2 | -3.8
COC(=O)c1ccc(-n2c(C)cc3ccccc32)s1
→ 105.7 | -7.3
Cc1cc2ccccc2n1-c1ccc(C(=O)NC2CCCC2)s1
→ 107.6 | 56.4*
CN(C(=O)Cn1c(=O)n(CCCC(=O)NCc2ccco2)c(=O)c2sccc21)c1ccccc1
→ 102.1 | -2.9
CN(C1=CC(=O)c2ccccc2C1=O)c1ccccc1
→ x | 51.0
COC1=CC(=O)c2ccccc2C1=O
→ 96.5 | 100.9*
O=C1/C(=C/c2ccc(O)cc2)SC(=S)N1CC1CCCO1 (configuration not stated)
→ -24.0* | x
O=C1/C(=C/C2CC=CCC2)SC(=S)N1CC1CCCO1 (configuration not stated)
→ 100.1 | x

4 compounds out of the list above, arranged by the value under GIV-Gai inh, low to high:
Compound	GIV-Gai inh
O=C1/C(=C/C2CC=CCC2)SC(=S)N1CC1CCCO1 (configuration not stated)	100.1
CCC1=NN(C(=O)c2cccc(C)c2)C(O)(c2ccc(Br)cc2)C1 (configuration not stated)	102.2
COC(=O)c1ccc(-n2c(C)cc3ccccc32)s1	105.7
Cc1cc2ccccc2n1-c1ccc(C(=O)NC2CCCC2)s1	107.6

The list goes on.
Order of values: GIV-Gai inh | HCMV UL50-53 inh
COC(=O)c1cc(COC(=O)/C=C/c2c(C)nn(-c3ccccc3)c2C)oc1C
→ x | -2.8
CCCc1[nH]n(-c2ccccc2)c(=O)c1C(C)=NCCOC
→ 106.9 | 2.0
CC(=O)NCCCc1[nH]n(-c2ccccc2)c(=O)c1NC(=O)c1ccccc1
→ x | 65.0*
CN(C)/C=C/C=C1/CCc2ccccc2C1=O
→ -3.8* | -28.0
CCN(CC)c1ccc(/C=C2\CCc3ccccc3C2=O)cc1
→ 253.4 | x
Fc1ccc(-c2cc(-c3nnco3)[nH]n2)cc1
→ 98.8 | -19.0
CC(OC(=O)c1ccccn1)C(=O)Nc1ccc(C(N)=O)cc1 (configuration not stated)
→ x | -13.9
Nc1cnc2cccc3c2c1-c1ccccc1C3=O
→ -73.7* | -60.1
Cc1nc2c3c(cccc3n1)C(=O)c1ccccc1-2
→ 91.5 | -95.9
O=S(=O)(c1ccc2nsnc2c1)N1CCCCC1c1cccnc1 (configuration not stated)
→ 102.4 | -57.5
O=S(=O)(c1ccc2c(c1)OCCO2)N1CCCCC1c1cccnc1 (configuration not stated)
→ -70.7* | -17.4
C=CCn1c(CN(c2ccc(F)cc2)S(C)(=O)=O)nnc1SCC(=O)N1CCc2ccccc21
→ 99.1 | -18.3
Cc1ccccc1-c1nnc(N(C)C(=O)C2CC2)s1
→ 102.0 | -7.4
CCc1ccc(N2C(=O)NC(=O)/C(=C\c3ccc(OC(C)C(=O)O)cc3)C2=O)cc1 (configuration not stated)
→ 99.8 | 78.5*
CCOc1ccc(N2C(=O)NC(=O)/C(=C\c3ccc(Br)cc3)C2=O)cc1
→ 109.7 | 1.2
Cc1cc(C)cc(N2C(=O)NC(=O)/C(=C\c3ccc(OC(C)C(=O)O)cc3)C2=O)c1 (configuration not stated)
→ 113.3 | 88.3*
CC(Oc1ccc(/C=C2\C(=O)NC(=O)N(c3ccc4c(c3)OCO4)C2=O)cc1)C(=O)O (configuration not stated)
→ 104.3 | -0.9
Cc1ccc(C)c(N2CCN(C(=O)c3sc4ncccc4c3-n3cccc3)CC2)c1
→ 95.7 | 0.4
